Ab-14 heavy chain CDR variants: yeast mating affinities

Target peptide (SARS-CoV-2 spike, HR2 region): PDVDLGDISGINAS

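The starting antibody came from a phage panning campaign against this peptide. AAYL49 was designed without a model: most single CDR substitutions and a random sample of double and triple ones. Affinity was read by AlphaSeq, a pooled yeast mating assay with surface-displayed partners. Mating (16 h, 30 °C) was followed by selection of diploids and sequencing of their barcodes. Each replicate has its own calibration line, from reference interactions of the BCL2 family. There are three technical replicates.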

Ab-14 is the parent antibody, in scFv form: VH, then a (GGGGS)3 linker, then VL. The light chain is unchanged in all variants.
VH: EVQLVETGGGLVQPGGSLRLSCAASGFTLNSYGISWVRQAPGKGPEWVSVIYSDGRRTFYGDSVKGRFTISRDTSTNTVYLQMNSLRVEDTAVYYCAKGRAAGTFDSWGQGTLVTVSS
VL: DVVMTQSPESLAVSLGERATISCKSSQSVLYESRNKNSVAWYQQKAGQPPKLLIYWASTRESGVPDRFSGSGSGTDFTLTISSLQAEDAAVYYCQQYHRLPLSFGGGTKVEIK

Sequences are complete VH domains.
Every variant below is changed at I34 of the VH (sequential numbering).
Scale: log10 of Kd in nM, estimated from mating counts; low values are strong binders.
The mean shown is taken over the replicates in which the pair was detected.
A pair that was not seen in any replicate is written "nd"; this usually means weak binding, but a binder can also be missed.
Order: sorted from the lowest average up, undetected variants last.

With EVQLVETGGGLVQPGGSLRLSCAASGFTLNSYGMSWVRQAPGKGPEWVSVIYSDGRRTFEGDSVKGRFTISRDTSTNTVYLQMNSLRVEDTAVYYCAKGRAAGTFDSWGQGTLVTVSS the result was 3.14 (1 of 3 replicates).
With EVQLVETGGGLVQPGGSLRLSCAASGFTLNSYGMSWVRQAPGKGPEWVSVIYSDGRRTFYGDAVVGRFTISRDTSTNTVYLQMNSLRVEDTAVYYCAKGRAAGTFDSWGQGTLVTVSS the result was 3.51 (1 of 3 replicates).
With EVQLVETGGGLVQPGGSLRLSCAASGFTLNSYGYSWVRQAPGKGPEWVSVYYSDGRRTFYGDSVKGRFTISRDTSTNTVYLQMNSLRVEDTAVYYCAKGRAAGTGDSWGQGTLVTVSS the result was 3.79 (1 of 3 replicates).
With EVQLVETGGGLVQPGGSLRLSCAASGRTLNSYGHSWVRQAPGKGPEWVSVIYSDGLRTFYGDSVKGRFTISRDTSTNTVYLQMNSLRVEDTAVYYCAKGRAAGTFDSWGQGTLVTVSS the result was 4.02 (1 of 3 replicates).
With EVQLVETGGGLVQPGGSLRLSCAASGFTLNSWGTSWVRQAPGKGPEWVSVIYSDGRRTFYGDSVKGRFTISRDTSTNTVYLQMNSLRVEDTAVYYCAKGRAAGTFCSWGQGTLVTVSS the result was 4.49 (2 of 3 replicates).
With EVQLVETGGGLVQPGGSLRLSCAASGFTLNSYGFSWVRQAPGKGPEWVSVIYSDGRRTFYGDSVKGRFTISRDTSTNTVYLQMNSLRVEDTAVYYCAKGRDAGTKDSWGQGTLVTVSS the result was 5.18 (1 of 3 replicates).
With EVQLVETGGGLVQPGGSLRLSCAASGFTLNSYGDSWVRQAPGKGPEWVSVIYSDGRRTFYGDSVKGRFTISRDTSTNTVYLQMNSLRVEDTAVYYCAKARAAGLFDSWGQGTLVTVSS the result was 5.58 (1 of 3 replicates).
With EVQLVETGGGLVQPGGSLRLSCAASGFTLNSYGNSWVRQAPGKGPEWVSVIYSDGRRTFYGDSVKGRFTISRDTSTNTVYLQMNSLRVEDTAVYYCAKGRAAGWFDSWGQGTLVTVSS the result was nd (0 of 3 replicates).
With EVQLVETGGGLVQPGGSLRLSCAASGFTLNMYGTSWVRQAPGKGPEWVSVIYSDGRRTFYGDSVKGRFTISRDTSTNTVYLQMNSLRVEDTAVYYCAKGRAAGTFDSWGQGTLVTVSS the result was nd (0 of 3 replicates).
With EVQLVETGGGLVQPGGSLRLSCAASGFTLNSYGNSWVRQAPGKGPEWVSVIYSDGYRTFYGDSHKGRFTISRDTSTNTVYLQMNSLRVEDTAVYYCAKGRAAGTFDSWGQGTLVTVSS the result was nd (0 of 3 replicates).
With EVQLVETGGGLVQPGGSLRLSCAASGFTLSSYGASWVRQAPGKGPEWVSVIYSDGRRTFYGDSVKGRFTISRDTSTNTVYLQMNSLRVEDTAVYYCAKGRAAGTFDCWGQGTLVTVSS the result was nd (0 of 3 replicates).

From the list, the first 2 with no signal in any replicate:

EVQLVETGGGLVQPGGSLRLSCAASGFTLNSYGNSWVRQAPGKGPEWVSVIYSDGRRTFYGDSVKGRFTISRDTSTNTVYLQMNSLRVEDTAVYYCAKGRAAGWFDSWGQGTLVTVSS: nd (0 of 3 replicates).
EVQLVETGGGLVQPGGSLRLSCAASGFTLNMYGTSWVRQAPGKGPEWVSVIYSDGRRTFYGDSVKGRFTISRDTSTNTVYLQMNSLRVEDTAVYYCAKGRAAGTFDSWGQGTLVTVSS: nd (0 of 3 replicates).

Background: pairings of library AAYL49 with three empty control strains gave a value in 15% of cases (median 4.06, 5th percentile 2.83). Values in that range, when seen in few replicates, are hard to tell from nonspecific mating.

The measurements come from Engelhart et al. 2022 (doi:10.1038/s41597-022-01779-4) through the FLAb antibody collection.